Patent publication US20230302022A1, “PREVENTING OR MITIGATING CHEMOTHERAPY INDUCED ALOPECIA USING VITAMIN D” (priority 2016, published 2023)

System: Gottingen Minipigs
Experiment: 4-week dermal toxicity study in Gottingen Minipigs
Conditions: minipig NOAEL dose vs initial clinical dose (5 μg/mL × 1 mL × 2×/day, 60 kg)
Description: Observations for morbidity, mortality, injury, and the availability of food and water were conducted twice daily for all animals. Clinical observations were conducted weekly.

C=C1/C(=C\C=C2/CCC[C@]3(C)[C@@H]([C@H](C)CCCC(C)(C)O)CC[C@@H]23)C[C@@H](O)C[C@@H]1O [Calcitriol, (5Z,7E)-9,10-secocholesta-5,7.10(19Hriene-1 a,33.25-triol]
margin of safety (MOS): 20
